The source of these data is the Kinase Knowledgebase extract (Sharma et al. 2016).

Protein sequences, listed by entry. Tags and fused reporters are not part of them. Lines headed by an entry give the natural chain unless they say otherwise; changes in a name come on top.
UniProt P42338: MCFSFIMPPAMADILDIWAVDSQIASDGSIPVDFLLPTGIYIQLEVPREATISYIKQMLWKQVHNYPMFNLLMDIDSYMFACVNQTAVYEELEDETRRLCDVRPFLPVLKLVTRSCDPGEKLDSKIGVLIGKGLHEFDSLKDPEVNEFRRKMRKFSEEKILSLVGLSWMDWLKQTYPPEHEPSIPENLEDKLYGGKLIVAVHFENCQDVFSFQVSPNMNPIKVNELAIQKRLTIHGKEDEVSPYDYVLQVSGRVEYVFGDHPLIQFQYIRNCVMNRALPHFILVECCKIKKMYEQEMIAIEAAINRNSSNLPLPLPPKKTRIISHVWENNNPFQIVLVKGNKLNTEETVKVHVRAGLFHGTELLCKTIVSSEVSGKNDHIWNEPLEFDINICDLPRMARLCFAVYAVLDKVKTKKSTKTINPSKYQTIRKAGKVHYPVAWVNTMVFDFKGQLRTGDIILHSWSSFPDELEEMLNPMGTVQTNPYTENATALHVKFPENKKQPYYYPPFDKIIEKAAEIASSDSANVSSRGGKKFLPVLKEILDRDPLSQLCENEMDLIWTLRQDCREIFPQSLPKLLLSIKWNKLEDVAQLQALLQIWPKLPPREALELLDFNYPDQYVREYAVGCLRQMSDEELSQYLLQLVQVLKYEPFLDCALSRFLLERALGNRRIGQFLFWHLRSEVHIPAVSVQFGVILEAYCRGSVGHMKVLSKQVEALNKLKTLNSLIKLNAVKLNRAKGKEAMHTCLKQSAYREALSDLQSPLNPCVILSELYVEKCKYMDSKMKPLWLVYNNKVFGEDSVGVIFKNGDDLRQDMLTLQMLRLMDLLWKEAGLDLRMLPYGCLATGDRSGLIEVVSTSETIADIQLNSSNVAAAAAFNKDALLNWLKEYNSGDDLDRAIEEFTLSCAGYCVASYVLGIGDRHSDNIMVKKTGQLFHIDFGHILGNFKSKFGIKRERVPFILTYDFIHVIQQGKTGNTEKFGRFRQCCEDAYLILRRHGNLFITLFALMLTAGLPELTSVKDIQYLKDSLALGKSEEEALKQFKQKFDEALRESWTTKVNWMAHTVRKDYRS

In this assay the target is PIK3CB (Human) (UniProt P42338). The experiment in a line: Assessment of PIK3CB Kinase Activity.

Where only a bound is given, the exact number is not on record here.

Usually IC50 stands for the concentration needed to halve the response being measured. In turn, `COc1c(OCC(O)CN2CCOCC2)ccc2c1N=C(NC(=O)c1cccnc1)N1CCN=C21` (stereo unspecified) came in with a 50% inhibitory concentration (IC50) of less than 10 nM.
